# Activity calls are given as the source filed them. The rule behind the calls is not given here.
# Chains of the proteins cited; added tags and fusions are not shown. Lines headed by an entry give the natural chain unless they say otherwise; changes in a name come on top.
# UniProt P28223, whole entry: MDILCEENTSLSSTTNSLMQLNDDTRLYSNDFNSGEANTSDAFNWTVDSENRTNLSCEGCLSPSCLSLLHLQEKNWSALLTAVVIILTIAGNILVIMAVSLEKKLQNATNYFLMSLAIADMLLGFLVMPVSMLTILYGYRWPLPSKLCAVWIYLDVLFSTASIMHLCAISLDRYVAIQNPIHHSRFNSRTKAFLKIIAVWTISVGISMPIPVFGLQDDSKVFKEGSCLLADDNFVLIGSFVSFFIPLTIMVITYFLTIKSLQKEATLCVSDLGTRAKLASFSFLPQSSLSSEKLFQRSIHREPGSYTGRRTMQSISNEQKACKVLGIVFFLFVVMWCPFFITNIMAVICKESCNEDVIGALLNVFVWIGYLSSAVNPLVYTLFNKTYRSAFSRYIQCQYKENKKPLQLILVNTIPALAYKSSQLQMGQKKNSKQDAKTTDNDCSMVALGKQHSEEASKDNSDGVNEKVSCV
# UniProt P28335: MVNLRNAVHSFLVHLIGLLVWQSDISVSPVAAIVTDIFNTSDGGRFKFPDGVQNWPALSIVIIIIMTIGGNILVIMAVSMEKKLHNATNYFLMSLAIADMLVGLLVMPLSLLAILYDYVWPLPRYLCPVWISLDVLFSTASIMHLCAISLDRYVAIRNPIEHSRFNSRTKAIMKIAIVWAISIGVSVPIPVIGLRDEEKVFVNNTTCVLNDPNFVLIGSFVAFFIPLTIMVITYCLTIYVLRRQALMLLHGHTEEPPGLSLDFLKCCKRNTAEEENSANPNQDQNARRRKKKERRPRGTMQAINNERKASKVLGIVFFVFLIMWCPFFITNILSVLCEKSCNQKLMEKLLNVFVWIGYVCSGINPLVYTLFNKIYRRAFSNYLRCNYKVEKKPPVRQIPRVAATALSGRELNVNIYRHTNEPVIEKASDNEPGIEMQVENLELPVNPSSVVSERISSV
# Experiments:
# [1] = biological target: 5-hydroxytryptamine receptor 2A (Homo sapiens, UniProt P28223); test: Agonist activity at 5-HT2A receptor in HEK293 cells assessed as calcium mobilisation by Fluo-4 dye based assay; assay type: functional, cell-based
# [2] = biological target: 5-hydroxytryptamine receptor 2C (Homo sapiens, UniProt P28335); test: Agonist activity at 5-HT2C receptor in HEK293 cells assessed as calcium mobilisation by Fluo-4 dye based assay; assay type: functional, cell-based
Compound,Activity [1],Activity [2]
COc1cc2cc3c(nc2cc1OC)CC1CC[C@@H]3N1C,inactive,inactive
CN1C2CC[C@H]1c1c(nc3ccccc3c1-c1ccccc1)C2,inactive,inactive
Cc1c2c(nc3ccccc13)CC1CC[C@@H]2N1C,inactive,inactive
CN1C2CC[C@H]1c1c(nc3cccc(Cl)c3c1-c1ccccc1)C2,inactive,inactive
CN1C2CC[C@H]1c1cc3ccc(F)cc3nc1C2,inactive,inactive
CN1C2CC[C@H]1c1c(nc3ccc(Cl)cc3c1-c1ccccc1F)C2,inactive,inactive
CN1C2CC[C@H]1c1c(nc3cc(F)ccc3c1-c1ccccc1)C2,inactive,inactive

# — ChEMBL document CHEMBL5360648, “Identification of 5-HT2 Serotonin Receptor Modulators through the Synthesis of a Diverse, Tropane- and Quinuclidine-alkaloid-Inspired Compound Library” (J Med Chem, 2023)
